## Fraction unbound values, as collected for the OPERA models

Source: data files of OPERA 2.9 (Mansouri et al.), github.com/kmansouri/OPERA.

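These are experimental values that the OPERA curators gathered from public databases to train and test their QSAR models. One number stands for a compound and property, with no spread given. Conditions of the individual experiments are not part of the data. A value may pool stereoisomers or salt forms, and the file does not say which form was measured. Some entries may be limits or estimates that an upstream database listed as plain numbers.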

The unbound fraction in human plasma runs from 0 (all bound) to 1 (all free).

CC(=O)C[C@@H](c1ccccc1)C1C(=O)Oc2ccccc2C1O (stereo partly drawn) is reported with fu 0.023.
CN(c1nc2ccccc2s1)C1CCN(C[C@H](O)COc2ccc(F)c(F)c2)CC1 is reported with fu 0.003.
Cc1nnc2n1-c1sc(Br)cc1C(c1ccccc1Cl)=NC2 is reported with fu 0.094.
c1cc[n+]2c(c1)-c1cccc[n+]1CC2 is reported with fu 0.7553.
Nc1cnn(-c2ccccc2)c(=O)c1Cl is reported with fu 0.4276.
Cc1cc(Cl)ccc1OCC(=O)O is reported with fu 0.01833.
O=C(CS(=O)C(c1ccccc1)c1ccccc1)NO (stereo unspecified) is reported with fu 0.2.
C#C[C@]1(O)C=C[C@H]2[C@@H]3CCC4=CC(=O)CC[C@@H]4[C@H]3CC[C@@]21CC is reported with fu 0.02033.
CCCOC(=O)Cc1ccc(OCC(=O)N(CC)CC)c(OC)c1 is reported with fu 0.25.
CC(C)[C@@H](C(=O)O[C@@H](C#N)c1cc(ccc1)Oc1ccccc1)c1ccc(Cl)cc1 is reported with fu 0.001118.
CO/C=C(/C(=O)OC)c1ccccc1Oc1cc(Oc2ccccc2C#N)ncn1 is reported with fu 0.04827.
CCCCC1(CC)C(=O)NC(=O)NC1=O is reported with fu 0.67.
ClC1C(Cl)C(Cl)C(Cl)C(Cl)C1Cl (mixture of isomers) is reported with fu 0.02703.
N#Cc1c[nH]cc1-c1cccc2c1OC(F)(F)O2 is reported with fu 0.00325.
Cc1cc(-c2ccc(N)c(C)c2)ccc1N.Cl.Cl is reported with fu 0.1281.
CCCSP(=O)(OCC)SCCC is reported with fu 0.09258.
CCOP(=S)(OCC)SCSCC is reported with fu 0.0129.
CC(C)(c1ccccc1)c1ccc(O)cc1 is reported with fu 0.0231.
CC[C@H](OC(C)=O)C(C[C@H](C)N(C)C)(c1ccccc1)c1ccccc1 is reported with fu 0.2.
Oc1ccc2c(c1)[C@@]13CCCC[C@@]1(O)[C@@H](C2)N(CC1CCC1)CC3 is reported with fu 0.1783.
CCOc1cc(Oc2ccc(C(F)(F)F)cc2Cl)ccc1[N+](=O)[O-] is reported with fu 0.1216.
Clc1cccc(Cl)c1Cl is reported with fu 0.01567.
O=[N+]([O-])O[C@H]1CO[C@H]2[C@@H]1OC[C@H]2O[N+](=O)[O-] is reported with fu 0.7567.
OCCOc1ccccc1 is reported with fu 0.2966.
Oc1cccc2cccnc12 is reported with fu 0.1184.
CN1C[C@H](C(=O)N[C@]2(C)O[C@@]3(O)[C@@H]4CCCN4C(=O)[C@H](Cc4ccccc4)N3C2=O)C=C2c3cccc4[nH]cc(c34)C[C@H]21 is reported with fu 0.02833.
COc1ccc2c(c1)[C@]13CCCC[C@@H]1[C@H](C2)N(C)CC3 is reported with fu 0.53.
CN(C)C(=O)Oc1cccc([N+](C)(C)C)c1 is reported with fu 0.9317.
CCCCOC(=O)c1ccccc1C(=O)OCCCC is reported with fu 0.03231.
Cc1cccc([N+](=O)[O-])c1 is reported with fu 0.07728.
CCCCN(CCCC)N=O is reported with fu 0.2602.
C=CC#N is reported with fu 0.8632.
C[C@]12CC[C@H](O)C[C@H]1CC[C@@H]1[C@@H]2CC[C@]2(C)[C@@H](C3=CC(=O)OC3)CC[C@]12O is reported with fu 0.0715.
COc1cc2c(cc1OC)[C@@H]1CC(=O)[C@@H](CC(C)C)CN1CC2 is reported with fu 0.15.
CCOC(=O)[C@H]1[C@@H](OC(=O)c2ccccc2)C[C@@H]2CC[C@H]1N2C is reported with fu 0.64.
CCCCCCCCCCCCCN1CC(C)OC(C)C1 (stereo unspecified) is reported with fu 0.002679.
Nc1ccc2ccccc2c1 is reported with fu 0.1099.
CCC1(C2=CCCCCC2)C(=O)NC(=O)NC1=O is reported with fu 0.62.
O=P(OCCCl)(OCCCl)OCCCl is reported with fu 0.44.
O=C(O)CCCOc1ccc(Cl)cc1Cl is reported with fu 0.007656.
Clc1ccc(Cl)cc1 is reported with fu 0.02291.
CC(C)(c1cc(Cl)c(O)c(Cl)c1)c1cc(Cl)c(O)c(Cl)c1 is reported with fu 0.00598.
CCOC(=O)C1(c2ccccc2)CCN(C)CC1 is reported with fu 0.42.
CC[C@H]1C[N@@]2CC[C@H]1C[C@@H]2[C@@H](O)c1ccnc2ccc(OC)cc12 is reported with fu 0.22.
COP(=O)(OC)C(O)C(Cl)(Cl)Cl (stereo unspecified) is reported with fu 0.696.
CC[N+]1(C)[C@@H]2C[C@@H](OC(=O)[C@H](CO)c3ccccc3)C[C@H]1[C@@H]1O[C@@H]12 (stereo partly drawn) is reported with fu 0.93.
Oc1ccc(Cl)cc1Cl is reported with fu 0.23.

Excerpt, the opening 4 entries:

CC(=O)C[C@@H](c1ccccc1)C1C(=O)Oc2ccccc2C1O (stereo partly drawn) is reported with fu 0.023.
CN(c1nc2ccccc2s1)C1CCN(C[C@H](O)COc2ccc(F)c(F)c2)CC1 is reported with fu 0.003.
Cc1nnc2n1-c1sc(Br)cc1C(c1ccccc1Cl)=NC2 is reported with fu 0.094.
c1cc[n+]2c(c1)-c1cccc[n+]1CC2 is reported with fu 0.7553.